pEC50, pKi: −log10 of the molar value.

Protein sequences, listed by entry. Tags and fused reporters are not part of them. Lines headed by an entry give the natural chain unless they say otherwise; changes in a name come on top.
UniProt Q9GZQ6: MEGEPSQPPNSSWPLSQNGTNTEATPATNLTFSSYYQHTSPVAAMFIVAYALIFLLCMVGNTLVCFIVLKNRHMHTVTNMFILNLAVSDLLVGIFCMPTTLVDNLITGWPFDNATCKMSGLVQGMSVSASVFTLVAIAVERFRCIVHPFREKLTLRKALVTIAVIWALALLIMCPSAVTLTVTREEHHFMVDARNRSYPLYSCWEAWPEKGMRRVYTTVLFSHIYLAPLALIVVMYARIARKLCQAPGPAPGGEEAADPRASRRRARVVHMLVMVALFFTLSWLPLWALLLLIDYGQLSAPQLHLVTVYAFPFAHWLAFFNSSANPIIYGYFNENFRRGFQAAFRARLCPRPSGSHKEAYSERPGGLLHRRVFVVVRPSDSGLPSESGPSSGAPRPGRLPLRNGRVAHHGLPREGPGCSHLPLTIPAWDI

Assay [1] has as its target T1, Neuropeptide FF receptor 1 (Homo sapiens, UniProt Q9GZQ6). The assay is described as follows: Displacement of [125I]-1DMeNPFF from recombinant human NPFF1 receptor expressed in CHO cells by TopCount scintillation counting method. In kind it is cell-based.
The target of assay [2] is T1, Neuropeptide FF receptor 1. As to the kind of experiment: Agonist activity at human NPFF1R expressed in HEK293 cells by dynamic mass redistribution assay. Type of assay: functional, cell-based.
The target in assay [3] is T1, Neuropeptide FF receptor 1. The assay is described as follows: Agonist activity at human NPFF1 receptor expressed in HEK293 cells assessed as reduction in forskolin- stimulated cAMP level. Type of assay: functional, cell-based. A general note: cAMP levels reflect the balance of adenylyl cyclase and phosphodiesterase activity.

In the case of `CC(C)C[C@H](NC(=O)[C@H](CC(N)=O)NC(=O)[C@@H]1CCCN1C(=O)[C@@H](N)C(C)C)C(=O)N1CCC[C@H]1C(=O)N[C@@H](CCC(N)=O)C(=O)N[C@@H](CCCNC(=N)N)C(=O)N[C@@H](Cc1ccccc1)C(N)=O`, the negative-log Ki (pKi) (in general, the negative decadic logarithm of the Ki, by convention in mol/L) in assay [1] was 11.00. For the same molecule, the figures for the pEC50 in assay [2] and in assay [3] were 7.52 and 7.30, respectively.

The values are drawn from ChEMBL document CHEMBL5042475 (J Med Chem, 2021).
